Biological target: GLP-1R (Homo sapiens, UniProt P43220)
Experiment: Whole-cell binding assay, competition with 125I-GLP-1(7-36)NH2
Set-up: Flag; expressed in transfected cells
Conditions: CHO-K1
Method: Human embryonic kidney 293 cells containing SV40 large T-antigen (HEK293T) were cultured in DMEM (Gibco) supplemented with 10% (v/v) fetal bovine serum (FBS, Gibco), 1 mM sodium pyruvate (Gibco) and 100 units/mL penicillin and 100 μg/mL streptomycin at 37 °C in 5% CO2. Chinese hamster ovary (CHO-K1) cells were cultured in F-12 (Gibco) containing 10% FBS, 100 units/mL penicillin and 100 μg/mL streptomycin at 37 °C in 5% CO2. For cAMP and receptor expression assays, HEK293T cells were seeded into 6-well cell culture plates at a density of 7 × 10^5 cells per well. After overnight incubation, cells were transfected with GIPR, GLP-1R or GCGR construct using Lipofectamine 2000 or Lipofectamine 3000 transfection reagent (Invitrogen). For whole-cell binding assay, CHO-K1 cells were seeded into 96-well fibronectin-treated cell culture plates at a density of 3 × 10^4 cells per well. After overnight incubation, cells were transfected with GIPR, GLP-1R or GCGR construct using Lipofectamine 2000 transfection reagent (Invitrogen). Following 24 h culturing, the transfected cells were ready for use.
For GLP-1R and GCGR, CHO-K1 cells (30,000 cells/well) were seeded into Isoplate-96 plates and incubated for 24 h at 37 °C in 5% CO2. The WT or mutant constructs were transiently transfected using Lipofectamine 2000 transfection reagent as previous described. They were then washed twice using F-12 with 0.1% BSA or 0.1% casein, 33 mM HEPES, and incubated for 2 h at 37 °C. […] Cells were washed three times with ice-cold PBS and lysed in PBS with 1% Triton X-100, 20 mM Tris-HCl. After addition of scintillation cocktail (PerkinElmer), radioactivity (CPM) was counted on a MicroBeta^2 microplate counter (PerkinElmer). Data were normalized to the WT response and analyzed using three-parameter logistic equation.

By UniProt entry, the sequences of proteins in these tests, tags left out. Residues count along the entry.
UniProt P43220, 24-463: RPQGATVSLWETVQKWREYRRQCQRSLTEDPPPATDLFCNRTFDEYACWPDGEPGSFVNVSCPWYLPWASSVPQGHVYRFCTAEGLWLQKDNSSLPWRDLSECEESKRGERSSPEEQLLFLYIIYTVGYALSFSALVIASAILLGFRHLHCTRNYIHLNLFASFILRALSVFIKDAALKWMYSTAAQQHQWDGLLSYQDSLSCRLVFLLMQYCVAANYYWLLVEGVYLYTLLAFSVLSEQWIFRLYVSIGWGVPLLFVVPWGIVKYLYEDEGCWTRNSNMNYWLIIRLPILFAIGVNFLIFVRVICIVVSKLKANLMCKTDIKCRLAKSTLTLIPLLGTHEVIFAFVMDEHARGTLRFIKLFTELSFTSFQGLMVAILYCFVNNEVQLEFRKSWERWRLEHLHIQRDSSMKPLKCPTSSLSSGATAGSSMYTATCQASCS

CC[C@H](C)[C@H](NC(=O)[C@H](CC(C)C)NC(=O)[C@H](Cc1c[nH]c2ccccc12)NC(=O)[C@H](CCC(N)=O)NC(=O)[C@@H](NC(=O)[C@H](Cc1ccccc1)NC(=O)[C@H](C)NC(=O)[C@H](CCCCNC(=O)COCCOCCNC(=O)COCCOCCNC(=O)CC[C@H](NC(=O)CCCCCCCCCCCCCCCCCCC(=O)O)C(=O)O)NC(=O)[C@H](CCC(N)=O)NC(=O)[C@H](C)NC(=O)[C@@H](NC(=O)[C@H](CCCCN)NC(=O)[C@H](CC(=O)O)NC(=O)[C@H](CC(C)C)NC(=O)C(C)(C)NC(=O)[C@@H](NC(=O)[C@H](CO)NC(=O)[C@H](Cc1ccc(O)cc1)NC(=O)[C@H](CC(=O)O)NC(=O)[C@H](CO)NC(=O)[C@@H](NC(=O)[C@H](Cc1ccccc1)NC(=O)[C@@H](NC(=O)CNC(=O)[C@H](CCC(=O)O)NC(=O)C(C)(C)NC(=O)[C@@H](N)Cc1ccc(O)cc1)[C@@H](C)O)[C@@H](C)O)[C@@H](C)CC)[C@@H](C)CC)C(C)C)C(=O)N[C@@H](C)C(=O)NCC(=O)NCC(=O)N1CCC[C@H]1C(=O)N[C@@H](CO)C(=O)N[C@@H](CO)C(=O)NCC(=O)N[C@@H](C)C(=O)N1CCC[C@H]1C(=O)N1CCC[C@H]1C(=O)N1CCC[C@H]1C(=O)N[C@@H](CO)C(N)=O [Tirzepatide]
binding Span (GLP-1R WT, 0.1% casein): 91.41 ± 8.36
binding Span (GLP-1R WT): 77.63 ± 5.70 % WT
binding Span (GLP-1R, effect of tirzepatide acylation): 82.07 ± 6.37 % WT or Tirzepatide

— PMC8881610 (Nature Communications, 2022)
